# Test results: patent publication US4652566A, “Benzofuran derivatives, processes for preparing the same and antihypertensive agents containing the same” (Kaken Pharmaceutical Co., Ltd., priority 1984, dated 1987)
# Amino acid sequences for entries named in this document (tags omitted).
# UniProt O35505, whole entry: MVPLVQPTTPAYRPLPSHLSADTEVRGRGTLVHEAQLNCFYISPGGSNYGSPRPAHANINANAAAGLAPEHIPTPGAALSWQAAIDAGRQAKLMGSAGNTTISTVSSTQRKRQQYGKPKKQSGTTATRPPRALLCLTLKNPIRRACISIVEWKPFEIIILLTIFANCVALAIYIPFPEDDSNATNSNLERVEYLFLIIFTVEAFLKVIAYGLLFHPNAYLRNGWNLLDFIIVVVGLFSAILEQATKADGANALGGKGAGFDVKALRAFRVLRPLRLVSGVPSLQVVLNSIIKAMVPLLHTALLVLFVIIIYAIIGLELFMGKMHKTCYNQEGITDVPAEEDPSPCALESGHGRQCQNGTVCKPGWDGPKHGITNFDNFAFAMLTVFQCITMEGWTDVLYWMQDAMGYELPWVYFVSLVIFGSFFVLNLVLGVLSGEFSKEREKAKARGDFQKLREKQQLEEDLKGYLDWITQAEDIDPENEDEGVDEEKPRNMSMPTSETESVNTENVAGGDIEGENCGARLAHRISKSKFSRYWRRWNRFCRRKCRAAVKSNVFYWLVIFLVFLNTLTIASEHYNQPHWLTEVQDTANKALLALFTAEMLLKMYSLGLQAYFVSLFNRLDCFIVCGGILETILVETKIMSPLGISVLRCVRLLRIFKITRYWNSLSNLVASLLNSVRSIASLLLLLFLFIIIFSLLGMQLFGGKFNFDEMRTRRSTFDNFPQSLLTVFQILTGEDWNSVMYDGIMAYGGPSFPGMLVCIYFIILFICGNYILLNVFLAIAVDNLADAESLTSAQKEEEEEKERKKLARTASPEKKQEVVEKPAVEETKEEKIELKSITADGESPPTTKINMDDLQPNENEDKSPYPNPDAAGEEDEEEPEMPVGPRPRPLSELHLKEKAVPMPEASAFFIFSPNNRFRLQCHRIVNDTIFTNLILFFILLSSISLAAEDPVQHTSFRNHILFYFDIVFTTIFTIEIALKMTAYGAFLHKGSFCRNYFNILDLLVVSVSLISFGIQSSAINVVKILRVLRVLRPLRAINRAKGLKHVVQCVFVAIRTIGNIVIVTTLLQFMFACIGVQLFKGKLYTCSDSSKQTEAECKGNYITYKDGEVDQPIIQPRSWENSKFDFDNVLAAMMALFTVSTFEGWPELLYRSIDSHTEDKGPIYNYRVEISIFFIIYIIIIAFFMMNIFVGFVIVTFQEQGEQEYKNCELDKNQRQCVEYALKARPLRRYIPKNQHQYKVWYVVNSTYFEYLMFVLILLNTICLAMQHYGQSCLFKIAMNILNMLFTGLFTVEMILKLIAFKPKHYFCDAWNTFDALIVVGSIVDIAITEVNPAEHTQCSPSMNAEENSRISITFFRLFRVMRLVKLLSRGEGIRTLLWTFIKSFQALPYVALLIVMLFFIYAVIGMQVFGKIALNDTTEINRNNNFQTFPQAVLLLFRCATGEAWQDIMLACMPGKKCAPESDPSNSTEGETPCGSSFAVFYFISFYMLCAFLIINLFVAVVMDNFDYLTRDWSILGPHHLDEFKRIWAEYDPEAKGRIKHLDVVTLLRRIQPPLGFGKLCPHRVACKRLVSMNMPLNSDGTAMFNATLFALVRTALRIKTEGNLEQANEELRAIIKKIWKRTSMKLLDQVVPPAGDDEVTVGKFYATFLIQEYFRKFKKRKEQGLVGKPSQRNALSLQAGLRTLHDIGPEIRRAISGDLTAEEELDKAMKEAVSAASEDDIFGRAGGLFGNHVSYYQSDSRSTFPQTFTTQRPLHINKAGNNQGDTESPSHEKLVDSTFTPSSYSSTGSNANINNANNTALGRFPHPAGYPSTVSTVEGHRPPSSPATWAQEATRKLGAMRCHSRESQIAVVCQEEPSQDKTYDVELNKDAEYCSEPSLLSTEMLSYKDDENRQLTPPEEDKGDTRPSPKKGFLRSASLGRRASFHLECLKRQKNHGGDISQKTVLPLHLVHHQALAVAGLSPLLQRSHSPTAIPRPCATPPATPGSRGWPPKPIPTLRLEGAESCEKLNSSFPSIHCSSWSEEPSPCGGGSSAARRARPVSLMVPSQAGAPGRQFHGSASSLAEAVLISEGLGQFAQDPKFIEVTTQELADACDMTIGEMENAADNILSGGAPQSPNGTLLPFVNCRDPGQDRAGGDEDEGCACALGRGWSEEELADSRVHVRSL
# Biological target: T1, calcium antagonism (thoracic aorta spiral specimen, contraction by calcium) (Cavia porcellus, UniProt O35505)
# T1 construct: from tissue; host or cells: thoracic aorta spiral strip of male Hartley guinea pig
# Assay: Calcium antagonistic effect (contraction response by calcium of spiral thoracic aorta specimen, Magnus method)
# Set-up: species or system Hartly male giunea pig
# Conditions: guinea pig thoracic aorta, read-out: Calcium antagonistic effect, pA2 value (converted)
# Protocol: [Calcium antagonistic effect]
# Using a spiral blood vessel specimen taken from a thoracic aorta of Hartly male giunea pig weighed 400 to 600 g, a contraction response by calcium was measured as a dose-response curve according to Magnus method and the antagonistic activity for each test compound was indicated as above-mentioned pA2 value.
smiles,measurement,value
"COc1ccc([C@@H]2Sc3ccccc3N(CCN(C)C)C(=O)[C@@H]2OC(C)=O)cc1 [Diltiazem, reference compound]",Kb,91.2 nM
